Results published in article PMC3661926 (Acta Neuropathologica, 2013).

Tested on: (Thy1)-h[A30P]α-syn mice
Assay: Transgenic α-synuclein mouse model

Brc1cccc(-c2cc(-c3ccc4c(c3)OCO4)n[nH]2)c1 [anle138b, 3-(1,3-benzodioxol-5-yl)-5-(3-bromophenyl)-1H-pyrazole]
prolongation of (median) disease-free survival (A30P-hum-α-syn transgenic mice, oral in DMSO/peanut butter from 8 weeks of age): 10 weeks
fluctuations in rotarod motor performance (prodromal phase, 300–450 days of age): significantly reduced fluctuations in motor performance
